Data set [1] deals with 12 patient-specific Kv11.1 variants (Homo sapiens, UniProt Q12809, A561V). Briefly: Tl+-flux trafficking assay of 12 patient-specific Kv11.1 variants. Particulars: A561V; minor increase seen by FACS. (In general: Flow cytometry measures light scatter and fluorescence of single cells or particles in a stream.)
For data set [2], the system named is 12 patient-specific Kv11.1 variants. The description is as above. The note with it: 10 μmol/L, 24-hour treatment.

Molecules are shown by their SMILES.

Results on one compound are retold here after article PMC12643509, “High-throughput screens identify genotype-specific therapeutics for channelopathies” (JCI Insight, 2025).

As for `Cc1cc(C)c2c(c1)[C@@H](N(Cc1cc(C(F)(F)F)cc(C(F)(F)F)c1)c1nnn(C)n1)CCCN2C[C@H]1CC[C@H](C(=O)O)CC1` [Evacetrapib, evacetrapib], the “trafficking increase by Tl+-flux assay” value in data set [1] is “not detected”. Moreover, the “number of the 12 variants with improved trafficking” value in data set [2] is listed as 6.
